EP4847493A1, “THIAZOLIDINEDIONE HDAC INHIBITOR, PREPARATION METHOD THEREFOR AND USE THEREOF” (dated 2026)

Sequences of proteins named here, by UniProt entry; tags and fusion partners are left off.
UniProt Q13547, whole entry: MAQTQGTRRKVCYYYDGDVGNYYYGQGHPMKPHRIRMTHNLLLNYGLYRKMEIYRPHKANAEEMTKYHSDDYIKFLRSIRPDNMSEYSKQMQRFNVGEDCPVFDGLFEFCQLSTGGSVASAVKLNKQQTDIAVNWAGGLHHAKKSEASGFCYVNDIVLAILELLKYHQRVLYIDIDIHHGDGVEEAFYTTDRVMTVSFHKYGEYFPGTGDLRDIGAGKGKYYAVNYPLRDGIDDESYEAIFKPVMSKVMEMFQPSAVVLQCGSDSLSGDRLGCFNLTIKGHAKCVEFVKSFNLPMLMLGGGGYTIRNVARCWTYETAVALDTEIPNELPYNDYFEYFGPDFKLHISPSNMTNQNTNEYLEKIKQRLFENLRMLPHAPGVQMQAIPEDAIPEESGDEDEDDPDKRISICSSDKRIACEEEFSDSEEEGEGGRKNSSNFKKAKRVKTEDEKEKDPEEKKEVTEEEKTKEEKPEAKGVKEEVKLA

Key:
A549 = test: MTT anti-proliferative assay, A549; details: for IC50: read-out: Anti-proliferative activity (IC50, µM) against tumor cell lines, A549, A549, human non-small cell lung cancer cell line, MTT, 96 h incubation; for inhibitory activity against A549, in words: Table 2
DU145 = test: MTT anti-proliferative assay, DU145
HDAC1 = HDAC1 (Homo sapiens, UniProt Q13547); test: HDAC1 inhibition assay (described as ADP-Glo Luminescent Kinase Assay); details: read-out: HDAC1 inhibitory activity (IC50); 1 h incubation at room temperature; test concentrations 0.05 nM to 1.0 µM
[1] = read-out: Anti-proliferative activity (IC50, µM) against tumor cell lines, DU145, DU145, human prostate cancer cell line, MTT, 96 h incubation

| IC50 (A549) [µM] | IC50 (DU145; [1]) [µM] | IC50 (HDAC1) [nM] | IC50 (DU145; read-out: inhibitory activity against DU145, DU145, text restatement of Table 2 in nM) [µM] | Structure (SMILES) | inhibitory activity against A549, in words (A549) |
| --- | --- | --- | --- | --- | --- |
| 3.83 | 2.1 | 4.2 | – | O=C(CCCCCCN1C(=O)S/C(=C\c2cnc3ccccc3c2)C1=O)NO | – |
| 10.1 | 2.4 | 1.8 | – | O=C(CCCCCCN1C(=O)S/C(=C\c2ccc3ncccc3c2)C1=O)NO | – |
| 6.44 | 0.86 | 2.5 | – | O=C(CCCCCCN1C(=O)S/C(=C\c2cccc(Cl)c2)C1=O)NO | – |
| 5.64 | 3.81 | – | – | CC(C)c1ccc(/C=C2\SC(=O)N(CCCCCCC(=O)NO)C2=O)cc1 | – |
| 3.78 | 2 | 3.2 | – | COc1c(Cl)cccc1/C=C1\SC(=O)N(CCCCCCC(=O)NO)C1=O | – |
| 4.71 | 0.84 | 2.1 | – | O=C(CCCCCCN1C(=O)S/C(=C\c2ccc(Cl)cc2)C1=O)NO | – |
| 2.08 | 9.18 | 1.9 | – | O=C(CCCCCCN1C(=O)S/C(=C\c2ccc3c(c2)CCO3)C1=O)NO | – |
| 2.51 | 0.53 | 2.4 | – | COc1ccc(/C=C2\SC(=O)N(CCCCCCC(=O)NO)C2=O)cc1Br | – |
| 5.36 | 1.23 | 6.1 | – | O=C(CCCCCCN1C(=O)S/C(=C\c2ccccc2Cl)C1=O)NO | – |
| 3.1 | 0.51 | 3.2 | – | O=C(CCCCCCN1C(=O)S/C(=C\c2ccccc2)C1=O)NO | – |
| 2.32 | 0.33 | 3.1 | – | O=C(CCCCCCN1C(=O)S/C(=C\c2cccs2)C1=O)NO | – |
| 1.34 | 0.5 | 2.2 | – | COc1cccc(/C=C2\SC(=O)N(CCCCCCC(=O)NO)C2=O)c1 | – |
| 5.96 | 1.97 | 4.4 | – | COc1cc(Cl)ccc1/C=C1\SC(=O)N(CCCCCCC(=O)NO)C1=O | – |
| 1.07 | < 0.1 | 5.6 | < 0.1 | O=C(CCCCCCN1C(=O)S/C(=C\c2ccc3cccnc3c2)C1=O)NO | – |
| 1.6 | 1.09 | 3.6 | – | COC(=O)c1cccc(/C=C2\SC(=O)N(CCCCCCC(=O)NO)C2=O)c1 | – |
| 1.52 | 0.29 | 2.6 | – | Nc1ccc(/C=C2\SC(=O)N(CCCCCCC(=O)NO)C2=O)cc1 | – |
| 0.91 | 0.74 | 3 | – | COc1ccc(/C=C2\SC(=O)N(CCCCCCC(=O)NO)C2=O)c(OC)c1 | submicromolar-level |
| 10.9 | 3.18 | 10 | – | O=C(CCCCCCN1C(=O)S/C(=C\c2cccnc2)C1=O)NO | – |
| 1.5 | 3.57 | 2.6 | – | COc1ccc(Br)cc1/C=C1\SC(=O)N(CCCCCCC(=O)NO)C1=O | – |
| 3.67 | 1.29 | 5 | – | O=C(CCCCCCN1C(=O)S/C(=C\c2cccc(Br)c2)C1=O)NO | – |
| 2.47 | 1.06 | 2.3 | – | O=C(CCCCCCN1C(=O)S/C(=C\c2ccc3c(c2)OCO3)C1=O)NO | – |

| IC50 (A549) [µM] | IC50 (DU145; [1]) [µM] | IC50 (HDAC1) [nM] | IC50 (DU145; read-out: inhibitory activity against DU145, DU145, text restatement of Table 2 in nM) [µM] | Structure (SMILES) | inhibitory activity against A549, in words (A549) |
| --- | --- | --- | --- | --- | --- |
| 2.69 | 0.22 | 1.3 | – | O=C(CCCCCCN1C(=O)S/C(=C\c2cccc3cccnc23)C1=O)NO | – |
| 3.09 | 2.46 | – | – | COc1ccc(/C=C2\SC(=S)N(CCCCCCC(=O)NO)C2=O)cc1 | – |
| 2.82 | 1.27 | 2.3 | – | COc1ccc(Cl)cc1/C=C1\SC(=O)N(CCCCCCC(=O)NO)C1=O | – |
| 1.61 | 1.05 | 6.7 | – | O=C(CCCCCCN1C(=O)S/C(=C\c2ccc(Br)cc2)C1=O)NO | – |
| 3.62 | 1.64 | 3.3 | – | O=C(CCCCCCN1C(=O)S/C(=C\c2ccc(F)cc2)C1=O)NO | – |
| 1.37 | 0.29 | 3.5 | – | COc1ccc(/C=C2\SC(=O)N(CCCCCCC(=O)NO)C2=O)cc1 | – |
| 1.26 | 0.16 | 4.2 | – | O=C(CCCCCCN1C(=O)S/C(=C\c2ccco2)C1=O)NO | – |
| 2.44 | 1.39 | 3.4 | – | O=C(CCCCCCN1C(=O)S/C(=C\c2ccc3ccccc3c2)C1=O)NO | – |
| 2.71 | 0.93 | 2.4 | – | COc1cc(F)ccc1/C=C1\SC(=O)N(CCCCCCC(=O)NO)C1=O | – |
| 4 | 1.05 | 1.9 | – | COc1cc(Br)ccc1/C=C1\SC(=O)N(CCCCCCC(=O)NO)C1=O | – |
| 3.36 | 0.5 | 3.9 | – | CCOc1ccccc1/C=C1\SC(=O)N(CCCCCCC(=O)NO)C1=O | – |
| 7.52 | 3.26 | 3.4 | – | COc1cccc(Cl)c1/C=C1\SC(=O)N(CCCCCCC(=O)NO)C1=O | – |
| 4.31 | 1.22 | 4 | – | O=C(CCCCCCN1C(=O)S/C(=C\c2ccccc2Br)C1=O)NO | – |
| 1.56 | 0.74 | 2.8 | – | COc1c(Br)cccc1/C=C1\SC(=O)N(CCCCCCC(=O)NO)C1=O | – |
| 5.37 | 4.19 | 4.8 | – | COC(=O)c1ccc(/C=C2\SC(=O)N(CCCCCCC(=O)NO)C2=O)cc1 | – |
| 0.55 | 6.56 | 2.5 | – | O=C(CCCCCCN1C(=O)S/C(=C\c2ccc3ccccc3n2)C1=O)NO | submicromolar-level |
| 5.65 | 3.62 | 11 | – | O=C(CCCCCCN1C(=O)/C(=C/c2ccc(Cl)cc2)SC1=S)NO | – |
| 2.98 | 3.31 | 8.5 | – | Cc1ccc(/C=C2\SC(=S)N(CCCCCCC(=O)NO)C2=O)cc1 | – |
| 2.28 | 0.97 | 4.1 | – | COc1ccc(/C=C2\SC(=O)N(CCCCCCC(=O)NO)C2=O)c(Br)c1 | – |
| 2 | 1.15 | 3.6 | – | COc1cc(C)ccc1/C=C1\SC(=O)N(CCCCCCC(=O)NO)C1=O | – |
| 2.7 | 3.64 | 31 | – | CCc1ccc(/C=C2\SC(=S)N(CCCCCCC(=O)NO)C2=O)cc1 | – |

Read-outs that look alike come from different tables or passages of the source.
